Test results from paper PMC7823652 (Viruses, 2020).
Read-outs that look alike come from different tables or passages of the source.

The chains behind the UniProt entries cited, without tags or fusion partners.
UniProt O15527, whole entry: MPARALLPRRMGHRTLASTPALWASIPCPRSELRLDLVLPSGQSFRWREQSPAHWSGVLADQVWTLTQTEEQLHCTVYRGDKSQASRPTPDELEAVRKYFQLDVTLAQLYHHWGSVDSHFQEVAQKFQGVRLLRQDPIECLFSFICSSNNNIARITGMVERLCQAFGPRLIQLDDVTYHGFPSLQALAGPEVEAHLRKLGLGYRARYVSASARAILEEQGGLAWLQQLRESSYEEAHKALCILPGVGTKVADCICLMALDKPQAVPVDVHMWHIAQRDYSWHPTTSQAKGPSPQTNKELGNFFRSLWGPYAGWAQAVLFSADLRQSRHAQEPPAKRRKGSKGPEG

Molecular target: hOGG1 (Homo sapiens, UniProt O15527)
Assay: hOGG1 IC50 (listed in supplementary data, method not described)
Assay type: biochemical

| SMILES | IC50 [µM] | IC50 (screening data table) [µM] |
| --- | --- | --- |
| O=C(Nc1ccc(I)cc1)N1CCC(n2c(=O)[nH]c3cc(Cl)ccc32)CC1 [TH003289] | 1.62 | – |
| O=C(Nc1ccc(I)cc1)N1CCC(n2c(=O)[nH]c3cc(Cl)ccc32)CC1 [TH3289] | 1.62 | 1.62 |
